# Measured values taken from PubChem BioAssay (Tox21).
# The chains behind the UniProt entries cited, without tags or fusion partners.
# UniProt Q12809, whole entry: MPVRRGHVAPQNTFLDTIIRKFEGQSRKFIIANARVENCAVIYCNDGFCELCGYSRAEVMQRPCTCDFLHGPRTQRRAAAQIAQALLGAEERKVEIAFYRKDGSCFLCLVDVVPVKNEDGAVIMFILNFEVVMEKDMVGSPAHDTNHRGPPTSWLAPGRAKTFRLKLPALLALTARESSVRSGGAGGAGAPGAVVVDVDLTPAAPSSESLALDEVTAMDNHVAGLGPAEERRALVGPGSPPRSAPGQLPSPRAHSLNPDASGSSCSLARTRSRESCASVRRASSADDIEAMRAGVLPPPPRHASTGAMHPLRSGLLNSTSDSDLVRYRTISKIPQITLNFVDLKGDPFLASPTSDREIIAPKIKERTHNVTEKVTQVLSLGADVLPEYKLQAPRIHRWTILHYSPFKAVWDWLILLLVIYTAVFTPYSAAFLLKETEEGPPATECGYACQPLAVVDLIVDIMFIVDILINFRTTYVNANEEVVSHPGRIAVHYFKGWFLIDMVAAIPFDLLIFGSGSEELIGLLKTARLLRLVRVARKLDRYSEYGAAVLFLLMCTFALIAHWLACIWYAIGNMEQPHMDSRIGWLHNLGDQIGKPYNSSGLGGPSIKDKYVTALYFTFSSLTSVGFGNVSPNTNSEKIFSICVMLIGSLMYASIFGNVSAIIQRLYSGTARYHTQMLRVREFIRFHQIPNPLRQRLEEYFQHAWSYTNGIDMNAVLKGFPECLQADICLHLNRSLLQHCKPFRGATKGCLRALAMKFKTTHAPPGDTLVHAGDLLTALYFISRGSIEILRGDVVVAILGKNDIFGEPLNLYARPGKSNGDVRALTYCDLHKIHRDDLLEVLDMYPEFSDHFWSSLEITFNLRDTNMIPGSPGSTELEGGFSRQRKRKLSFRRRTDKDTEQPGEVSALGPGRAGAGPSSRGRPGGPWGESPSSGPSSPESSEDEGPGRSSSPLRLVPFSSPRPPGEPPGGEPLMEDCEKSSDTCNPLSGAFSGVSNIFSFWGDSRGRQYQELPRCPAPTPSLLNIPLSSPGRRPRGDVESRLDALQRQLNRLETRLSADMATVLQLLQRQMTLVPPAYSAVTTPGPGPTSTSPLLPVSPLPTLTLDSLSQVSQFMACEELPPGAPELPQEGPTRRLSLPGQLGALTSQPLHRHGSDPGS
# UniProt P08684, whole entry: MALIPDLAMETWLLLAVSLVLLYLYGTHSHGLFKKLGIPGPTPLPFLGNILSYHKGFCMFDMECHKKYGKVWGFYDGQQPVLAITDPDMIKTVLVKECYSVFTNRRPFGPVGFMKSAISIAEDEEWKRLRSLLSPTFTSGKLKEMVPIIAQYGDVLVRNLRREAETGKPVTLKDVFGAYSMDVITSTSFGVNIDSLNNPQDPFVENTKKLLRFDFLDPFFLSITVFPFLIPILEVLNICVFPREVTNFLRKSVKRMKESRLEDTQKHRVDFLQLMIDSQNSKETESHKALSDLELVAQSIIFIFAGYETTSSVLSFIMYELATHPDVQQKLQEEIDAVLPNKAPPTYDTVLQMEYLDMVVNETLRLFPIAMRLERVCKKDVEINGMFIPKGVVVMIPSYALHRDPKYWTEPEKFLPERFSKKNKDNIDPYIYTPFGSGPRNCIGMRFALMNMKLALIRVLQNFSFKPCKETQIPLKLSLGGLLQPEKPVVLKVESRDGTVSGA
# The list shows a part of the results, in another mix than the full data. Inconclusive results are not listed. A structure can be active in one record and inactive in another. A call without a number means that no potency is given here. Calls of active or inactive are those of the source. The call rests on the fitted dose curve; in most records, active means well fitted curve in the direction sought with a large enough effect in the repeat runs; inconclusive means weak or mixed curves; inactive means no such curve, though single readings can be large; an effect the other way counts as inactive or inconclusive.
# Molecular target: Voltage-gated inwardly rectifying potassium channel KCNH2 (Homo sapiens) (UniProt Q12809)
# Experiment: Human Ether-a-go-go-Related Gene (hERG) channel small molecule antagonists: fluorescence cell-based qHTS assay (AID 1671200)
# Details: hERG-U2OS cells, FluxOR thallium flux fluorescence; series mostly up to 76.8 µM
# Summary of the method: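 Quantitative HTS in hERG-U2OS cells: thallium entry through the channel reports activity, read as continuous 480/540 nm fluorescence over 2 min after stimulus addition.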
# Further: nearly all actives have a fitted effect of over 50% in size.
# Potency means the concentration at half of the fitted maximal effect.
row,Compound,Potency
1,Cc1cccc([N+](=O)[O-])c1[N+](=O)[O-],inactive
2,CC(C)N(CCO)C(C)C,inactive
3,CCN(CC)CCCl,inactive
4,O=[N+]([O-])c1cccc([N+](=O)[O-])c1,inactive
5,OCCSCCO,inactive
6,CC(C)OP(C)(=O)OC(C)C,inactive
7,Cc1ccc([N+](=O)[O-])cc1[N+](=O)[O-],active: 48.3 µM and inactive
8,O=[N+]([O-])OCC(CO[N+](=O)[O-])(CO[N+](=O)[O-])CO[N+](=O)[O-],inactive
9,N=C(N)N[N+](=O)[O-],inactive
10,C/C1=C2N=C(/C=C3N=C(/C(C)=C4\[N-][C@@](C)([C@@H]5N=C1[C@](C)(CCC(=O)NC[C@@H](C)OP(=O)([O-])O[C@H]1[C@@H](O)[C@@H](n6cnc7cc(C)c(C)cc76)O[C@@H]1CO)[C@H]5CC(N)=O)[C@@](C)(CC(N)=O)[C@@H]4CCC(N)=O)[C@@](C)(CC(N)=O)[C@@H]\3CCC(N)=O)C(C)(C)[C@@H]/2CCC(N)=O.[C-]#N.[Co+3],inactive
11,O=[N+]([O-])[O-].[NH4+],inactive
12,COc1ccc([N+](=O)[O-])cc1[N+](=O)[O-],inactive
13,CCOP(=O)(CC)Oc1ccc([N+](=O)[O-])cc1 (stereo not drawn),inactive
14,Nc1cc([N+](=O)[O-])cc([N+](=O)[O-])c1O,inactive
15,COP(C)(=O)OC,inactive
16,Cc1c([N+](=O)[O-])cccc1[N+](=O)[O-],inactive
17,Cc1ccc([N+](=O)[O-])c([N+](=O)[O-])c1,inactive
18,[NH4+].[O-][Cl+3]([O-])([O-])[O-],inactive
19,N#CBr,inactive
20,CCOP(=O)(CC)OCC,inactive
21,CN(C)CCCl,inactive
22,CP(=O)(O)OCCC[Si](O)(O)O,inactive

# Molecular target: Cytochrome P450 3A4 (Homo sapiens) (UniProt P08684)
# Experiment: Cytochrome P450 Family 3 Subfamily A Member 4 (CYP3A4) small molecule antagonists: luciferase reporter qHTS assay (AID 1671201)
# Details: P450-Glo CYP3A4 enzyme, luciferin luminescence, 1 h; series mostly up to 115 µM
# Summary of the method: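 Inhibition of CYP3A4 is measured as loss of light: the enzyme converts a proluciferin substrate to luciferin, detected luminescently. Reaction ran 1 h at room temperature with NADPH regeneration after a 10 min compound preincubation.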
row,Compound,Potency
1,Cc1cccc([N+](=O)[O-])c1[N+](=O)[O-],inactive
2,CC(C)N(CCO)C(C)C,inactive
3,CCN(CC)CCCl,inactive
4,O=[N+]([O-])c1cccc([N+](=O)[O-])c1,inactive
5,OCCSCCO,inactive
6,CC(C)OP(C)(=O)OC(C)C,active: 28.3 µM and inactive
7,Cc1ccc([N+](=O)[O-])cc1[N+](=O)[O-],inactive
8,O=[N+]([O-])OCC(CO[N+](=O)[O-])(CO[N+](=O)[O-])CO[N+](=O)[O-],inactive
9,N=C(N)N[N+](=O)[O-],inactive
10,C/C1=C2N=C(/C=C3N=C(/C(C)=C4\[N-][C@@](C)([C@@H]5N=C1[C@](C)(CCC(=O)NC[C@@H](C)OP(=O)([O-])O[C@H]1[C@@H](O)[C@@H](n6cnc7cc(C)c(C)cc76)O[C@@H]1CO)[C@H]5CC(N)=O)[C@@](C)(CC(N)=O)[C@@H]4CCC(N)=O)[C@@](C)(CC(N)=O)[C@@H]\3CCC(N)=O)C(C)(C)[C@@H]/2CCC(N)=O.[C-]#N.[Co+3],inactive
11,O=[N+]([O-])[O-].[NH4+],inactive
12,COc1ccc([N+](=O)[O-])cc1[N+](=O)[O-],inactive
13,CCOP(=O)(CC)Oc1ccc([N+](=O)[O-])cc1 (stereo not drawn),inactive
14,COP(C)(=O)OC,inactive
15,Cc1c([N+](=O)[O-])cccc1[N+](=O)[O-],inactive
16,Cc1ccc([N+](=O)[O-])c([N+](=O)[O-])c1,inactive
17,[NH4+].[O-][Cl+3]([O-])([O-])[O-],inactive
18,N#CBr,inactive
19,CCOP(=O)(CC)OCC,inactive
20,CN(C)CCCl,inactive
21,CP(=O)(O)OCCC[Si](O)(O)O,inactive
